Hits are enriched below; roughly 0.73% of the tested compounds scored in any of these assays.
RAD52 anneal inh: inhibitors of human RAD52 DNA annealing; P43351; recombinant RAD52 DNA annealing, FRET fluorescence; AID 651710; inhibition, % at 18.7 µM; 0.46% of 360,000 active;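 active = every replicate showing at least 50% inhibition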
RAD54 inh: blocks human RAD54 Holliday junction branch migration. AID 602329. 0.14% of 360,000 active. inhibition, % at 10.4 µM. FAM/BHQ fluorescence. Q92698;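 active = mean normalized replicate activity at least 40 and at least half of replicates scoring 40 or more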;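 note: 0% = median of neutral control wells and 100% = median of positive control wells; inhibitors cause a drop in the FAM fluorescence signal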
Xi reactivation: X-chromosome reactivation activator; XiGFP mouse fibroblasts, % GFP-positive cells imaging, 3 d; cells co-treated with 5-aza-dC sensitizer; scaled so ellipticine positive control = 100%; activation, % at 7.58 µM; 0.055% of 360,000 active; AID 743238;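 active = mean normalized replicate activation at least 10% and every replicate at or above 10%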;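 note: 0% = median of on-plate neutral control wells and 100% = ellipticine 6 µM median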
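Material: XiGFP fibroblasts, SV40-immortalized; Buffer or medium: DMEM containing 5-aza-dC; Compound dosing: single point; Times: 3 days compound exposure.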
Yeast UUG start: yeast start codon fidelity modulation. S. cerevisiae UUG-firefly luciferase reporter, luminescence/redox ratio. activity score, % at 18.7 µM. 0.13% of 350,000 active;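 active means replicate mean at a twofold rise or more, about +100% in these data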;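 further: firefly luciferase made from a UUG start codon reports start codon fidelity; reporter light over untreated wells divided by growth signal over untreated wells; some hits fall short of that in this replicate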
E-selectin induc: induces E-selectin expression in human endothelial cells. HUVEC E-selectin immunofluorescence imaging; normalized: neutral wells 0, TNF-alpha wells 100. activation, % at 7.58 µM. 0.37% of 260,000 active;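 active = mean E-selectin-positive cell signal at least 10% of the positive control, reached in at least 60% of replicates, without over 20% cell loss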
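System: HUVEC, human umbilical vein endothelial cells; quantity: 3,000 cells/well; buffer or medium: EGM-2 medium, gelatin-coated wells; dosing: single-point compound dose; detection: immunofluorescence imaging; evaluation: % PE-positive cells; benchmarks: TNF-alpha, DMSO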
An asterisk follows results filed as active; i = inactive; nt = no result given.

1) C[C@H](CO)N1C[C@H](C)[C@H](CN(C)Cc2ccc(Cl)c(Cl)c2)Oc2c(NC(=O)c3ccc(-c4nccs4)cc3)cccc2C1=O
2) COc1cccc(S(=O)(=O)N[C@@H]2CC[C@@H](CC(=O)NC3Cc4ccccc4C3)O[C@H]2CO)c1
3) COc1ccccc1-c1ccc2n(c1=O)C[C@@H]1[C@@H](CO)[C@H](C(=O)N(C)C)N[C@H]21
4) CC(=O)N(C)C[C@H]1Oc2cc(C#CC3CC3)ccc2S(=O)(=O)N([C@@H](C)CO)C[C@@H]1C
5) CC(=O)Nc1ccc(NC(=O)COc2ccc(Cl)cc2Cl)cc1
6) O=C(COc1ccc(Cl)cc1Cl)Nc1ccc(Cl)cn1
7) CCc1nn(CCCC(=O)N2CCN(c3ccc(OC)cc3)CC2)c(=O)c2cc3occc3n12
8) CCCCCCCCOC(=O)c1c(CSC(=N)N)n(C)c2cc(Br)c(OC(C)=O)cc12

| assay / entry | 1 | 2 | 3 | 4 | 5 | 6 | 7 | 8 |
| --- | --- | --- | --- | --- | --- | --- | --- | --- |
| RAD52 anneal inh | 14 | -5 | 9 | nt | 0 | 1 | -9 | 83* |
| RAD54 inh | 0 | 4 | 9 | nt | -7 | 9 | nt | -1 |
| Xi reactivation | -1 | 0 | 0 | -1 | 0 | nt | 0 | 0 |
| Yeast UUG start | 5 | -12 | nt | -6 | -8 | -40 | nt | -17 |
| E-selectin induc | -7 | 0 | 0 | 1 | 48* | nt | 141* | nt |

3 compounds already listed, ordered by SMILES length, low to high:
3) COc1ccccc1-c1ccc2n(c1=O)C[C@@H]1[C@@H](CO)[C@H](C(=O)N(C)C)N[C@H]21
4) CC(=O)N(C)C[C@H]1Oc2cc(C#CC3CC3)ccc2S(=O)(=O)N([C@@H](C)CO)C[C@@H]1C
1) C[C@H](CO)N1C[C@H](C)[C@H](CN(C)Cc2ccc(Cl)c(Cl)c2)Oc2c(NC(=O)c3ccc(-c4nccs4)cc3)cccc2C1=O

| assay / entry | 3 | 4 | 1 |
| --- | --- | --- | --- |
| RAD52 anneal inh | 9 | nt | 14 |
| RAD54 inh | 9 | nt | 0 |
| Xi reactivation | 0 | -1 | -1 |
| Yeast UUG start | nt | -6 | 5 |
| E-selectin induc | 0 | 1 | -7 |

(more compounds)
9) CCNC(=O)[C@@H]1[C@@H](CO)[C@@H]2Cn3c(ccc(-c4cccc(F)c4)c3=O)[C@H]1N2C(=O)c1cnccn1
10) COC1C(CO)OC(n2c3c(Cl)cccc3c3c4c(c5c6cccc(Cl)c6[nH]c5c32)C(=O)NC4=O)C(O)C1O (stereo unspecified)
11) Cc1cc(C)c2c(N)c3ccccc3nc2n1
12) O=C(NCc1ccccc1)C1CCCN(S(=O)(=O)c2ccc(-n3cnnn3)cc2)C1 (stereo unspecified)
13) CC1=NC(C)(C)Cc2c(C)cccc21
14) Cc1cccc2c1CC(C)(C)N=C2C1=C(O)CCCC1=O
15) N=C1C=CC(=C(c2ccc(N)cc2)c2ccc(N)cc2)C=C1
16) Nc1ccc(C(=O)C(=O)c2ccc(N)cc2)cc1

| assay / entry | 9 | 10 | 11 | 12 | 13 | 14 | 15 | 16 |
| --- | --- | --- | --- | --- | --- | --- | --- | --- |
| RAD52 anneal inh | -4 | i | nt | -10 | 1 | nt | 3 | -13 |
| RAD54 inh | -8 | nt | 100* | 0 | -10 | 18 | nt | 6 |
| Xi reactivation | 1 | 23* | nt | 1 | 0 | nt | 0 | 0 |
| Yeast UUG start | nt | nt | 23 | -8 | -8 | 0 | nt | -24 |
| E-selectin induc | 0 | 0 | nt | 31* | 72* | nt | 39* | nt |

17) O=C(Nc1ccccc1)N1CCCCN2[C@H](CO)[C@H](c3ccc(C#Cc4cccnc4)cc3)[C@H]2C1
18) COCCN(C(=O)c1ccc2c(c1)C(=O)N(c1ccccc1Cl)C2=O)c1c(N)n(CC(C)C)c(=O)[nH]c1=O
19) CCCCn1c(N)c(N(CCOC)C(=O)c2ccc3c(c2)C(=O)N(c2ccccc2C)C3=O)c(=O)[nH]c1=O
20) COc1ccc(NC(=O)Nc2ccc3c(c2)C(=O)N([C@H](C)CO)C[C@H](C)[C@@H](CN(C)Cc2ccccc2)OCCCC[C@@H](C)O3)cc1
21) COc1ccc(NC(=O)Nc2ccc3c(c2)C(=O)N([C@@H](C)CO)C[C@@H](C)[C@@H](CN(C)Cc2ccccc2)OCCCC[C@@H](C)O3)cc1
22) COc1ccc(NC(=O)Nc2ccc3c(c2)C(=O)N([C@@H](C)CO)C[C@H](C)[C@@H](CN(C)Cc2ccccc2)OCCCC[C@@H](C)O3)cc1
23) COc1ccc(NC(=O)Nc2ccc3c(c2)C(=O)N([C@H](C)CO)C[C@@H](C)[C@@H](CN(C)Cc2ccccc2)OCCCC[C@@H](C)O3)cc1
24) COc1ccc(NC(=O)Nc2ccc3c(c2)C(=O)N([C@H](C)CO)C[C@@H](C)[C@H](CN(C)Cc2ccccc2)OCCCC[C@@H](C)O3)cc1
25) COc1ccc(NC(=O)Nc2ccc3c(c2)C(=O)N([C@@H](C)CO)C[C@@H](C)[C@H](CN(C)Cc2ccccc2)OCCCC[C@H](C)O3)cc1
26) C[C@H]1CN([C@@H](C)CO)C(=O)Cc2cc(NC(=O)Cc3ccccc3)ccc2O[C@@H]1CN(C)C(=O)Nc1cccc2ccccc12

| assay / entry | 17 | 18 | 19 | 20 | 21 | 22 | 23 | 24 | 25 | 26 |
| --- | --- | --- | --- | --- | --- | --- | --- | --- | --- | --- |
| RAD52 anneal inh | 19 | -21 | -1 | 20 | 53* | 56* | 49 | 69* | 52* | 7 |
| RAD54 inh | 0 | -10 | -11 | 8 | 0 | 1 | -2 | 8 | 1 | -5 |
| Xi reactivation | 0 | 142* | 0 | 0 | 0 | 0 | 0 | 0 | 0 | 0 |
| Yeast UUG start | 2 | -17 | -2 | 0 | 39 | 23 | 23 | 14 | 15 | 4 |
| E-selectin induc | -1 | 0 | 0 | 0 | 0 | 0 | 0 | 0 | 0 | 15 |

Screening results (PubChem)
